Results on 1 compound are retold here after patent publication US11185532B2, “Methods of treating pruritus” (Clexio Biosciences Ltd., priority 2019, dated 2021).

Sequences of proteins named here, by UniProt entry; tags and fusion partners are left off.
UniProt P08913, whole entry: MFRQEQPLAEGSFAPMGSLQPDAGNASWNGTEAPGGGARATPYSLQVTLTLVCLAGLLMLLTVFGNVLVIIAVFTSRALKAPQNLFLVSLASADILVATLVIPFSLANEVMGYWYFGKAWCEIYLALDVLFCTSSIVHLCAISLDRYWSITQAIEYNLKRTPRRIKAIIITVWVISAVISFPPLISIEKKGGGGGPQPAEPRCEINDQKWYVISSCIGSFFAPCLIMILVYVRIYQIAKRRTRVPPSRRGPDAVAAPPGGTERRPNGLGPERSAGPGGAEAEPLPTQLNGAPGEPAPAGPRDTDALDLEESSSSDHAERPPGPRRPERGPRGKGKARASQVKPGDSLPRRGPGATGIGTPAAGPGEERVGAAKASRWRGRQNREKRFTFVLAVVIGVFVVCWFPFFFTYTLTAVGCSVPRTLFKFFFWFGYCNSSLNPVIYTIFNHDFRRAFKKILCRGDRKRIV
UniProt P18825, whole entry: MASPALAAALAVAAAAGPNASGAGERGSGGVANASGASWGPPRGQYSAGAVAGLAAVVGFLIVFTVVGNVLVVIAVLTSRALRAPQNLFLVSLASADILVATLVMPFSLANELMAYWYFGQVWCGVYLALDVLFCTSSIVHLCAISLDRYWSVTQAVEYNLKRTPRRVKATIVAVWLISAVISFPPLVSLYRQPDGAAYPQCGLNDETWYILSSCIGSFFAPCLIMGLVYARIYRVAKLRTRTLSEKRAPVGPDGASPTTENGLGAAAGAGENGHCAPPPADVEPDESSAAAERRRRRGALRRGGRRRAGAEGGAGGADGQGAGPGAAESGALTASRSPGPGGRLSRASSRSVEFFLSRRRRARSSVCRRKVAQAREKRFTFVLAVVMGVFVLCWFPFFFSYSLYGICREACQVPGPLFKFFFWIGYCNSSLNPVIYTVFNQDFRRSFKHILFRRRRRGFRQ
UniProt P18089, whole entry: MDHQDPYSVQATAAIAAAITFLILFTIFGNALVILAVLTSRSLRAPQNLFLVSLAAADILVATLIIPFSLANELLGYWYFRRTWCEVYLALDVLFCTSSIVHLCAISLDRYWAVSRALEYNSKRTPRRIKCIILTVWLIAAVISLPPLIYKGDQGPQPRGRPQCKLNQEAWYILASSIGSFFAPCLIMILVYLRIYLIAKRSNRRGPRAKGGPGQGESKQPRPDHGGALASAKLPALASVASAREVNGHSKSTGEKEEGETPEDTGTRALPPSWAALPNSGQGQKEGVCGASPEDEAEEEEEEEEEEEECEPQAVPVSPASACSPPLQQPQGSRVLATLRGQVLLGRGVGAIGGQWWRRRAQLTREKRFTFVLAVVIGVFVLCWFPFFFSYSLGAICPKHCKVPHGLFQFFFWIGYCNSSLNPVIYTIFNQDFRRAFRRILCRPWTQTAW

Assay [1] has as its target T1, Adrenergic α2A (Homo sapiens, UniProt P08913). Briefly: biochemical.
The target of assay [2] is T2, Adrenergic α2C (Homo sapiens, UniProt P18825). Briefly: cell-based.
In assay [3] the target is T3, Adrenergic α2B (Homo sapiens, UniProt P18089). Briefly: cell-based.
Assay [4] has as its target T2, Adrenergic α2C. Briefly: biochemical.
Assay [5] addresses T3, Adrenergic α2B. The assay can be described thus: biochemical.
Assay [6] has as its target T1, Adrenergic α2A. The assay can be described thus: cell-based.

What is called inhibition is the drop in the measured response relative to a control, in per cent. As a reminder, the EC50 is the concentration that produces a half-maximal response. Read a high EC50 as a need for much substance.

In the case of `Cc1cccc(Cc2c[nH]cn2)c1C` [detomidine], the inhibition at 10 µM against Adrenergic α2A [1] is 97%; at Adrenergic α2C [4], 100%; against Adrenergic α2B [5], 104%. Also, the results for the EC50 on Adrenergic α2C [2], at Adrenergic α2B [3] and at Adrenergic α2A [6] were 0.3 nM, 36 nM and 23.5 nM, respectively.
